# Antibody variant affinities, Ab-14 light chain, assay B

Data: MIT Lincoln Laboratory AlphaSeq set, Li et al. 2023, doi:10.1038/s41467-023-39022-2, as distributed in FLAb.

Antigen: PDVDLGDISGINAS, a 14-residue peptide of the SARS-CoV-2 spike HR2 region.

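Phage display of a naive human antibody library on the peptide gave the parent. This is the validation round: designs drawn from the data on random variants, tested in the same kind of assay. Their group label is 14L_En_Gibbs (En: ensemble of fine-tuned language models; Gibbs: Gibbs sampling). In AlphaSeq, yeast of one mating type display the scFv and yeast of the other type display the target. Pairs that bind mate more often; barcode pairs of the diploids are counted by sequencing. A regression on co-assayed BCL2-family reference pairs converts the normalised counts of each replicate to an apparent Kd. The assay was run in six technical replicates.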

The variants keep the heavy chain, the linker and the frameworks of Ab-14 (scFv order VH, a 15-residue (Gly4Ser)3 linker, VL).
VH: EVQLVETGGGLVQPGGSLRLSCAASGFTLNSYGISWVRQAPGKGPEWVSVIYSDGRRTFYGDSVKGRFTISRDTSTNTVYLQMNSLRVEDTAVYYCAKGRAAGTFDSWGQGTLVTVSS
VL: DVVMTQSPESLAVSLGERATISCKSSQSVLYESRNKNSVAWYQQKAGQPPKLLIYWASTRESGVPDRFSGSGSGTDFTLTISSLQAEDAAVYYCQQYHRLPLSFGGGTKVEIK

Variants are written as CDR1, CDR2 and CDR3 of the light chain (limits as in the source). Parent: KSSQSVLYESRNKNSVA, WASTRES, QQYHRLPLS. Scale: log10 of Kd in nM, estimated from mating counts; low values are strong binders. A mean of the replicates is given; it leaves out those without a signal. An entry "nd" has no value in the source: the pair was not observed among the diploids in that replicate. This suggests poor binding but is not conclusive. A sequence measured in both rounds can read differently, since the two assays cover different ranges.

| CDR-L1 | CDR-L2 | CDR-L3 | log10 Kd, replicates | mean log10 Kd (nM) | signal with controls |
|---|---|---|---|---|---|
| KFQNGLERGNQGYSAIA | DVTEKGA | QQYLQLPLM | 0.58 0.30 0.40 0.16 0.25 0.38 | 0.35 | 1/18 (1.77) |
| NLGFEDANDNRGMMAVA | DVNTVGE | QHYNRLPLS | 1.50 1.38 1.19 1.11 1.40 1.21 | 1.30 | 0/18 |
| KIQLGLSRYNGDYSSVA | NETQKGD | QQYFQLPLG | 1.15 0.69 0.70 0.56 0.87 0.67 | 0.77 | 3/18 (2.64) |
| NLKEMEGTNQTKHGNIA | SVDQRMS | QQYFRLPLI | 0.74 0.83 0.46 0.59 0.67 0.73 | 0.67 | 1/18 (2.79) |
| KLDYLNGYSDIGGNSIA | DVSTAGM | QQYIRLPLS | 0.69 0.99 0.91 0.74 0.47 0.86 | 0.78 | 2/18 (2.50) |
| MIEEGHAGEIKNSSNIA | SQDQKSD | QQYQRLPLI | nd 1.92 nd 3.27 1.44 2.49 | 2.28 | 1/18 (2.91) |
| RIEDHHAEGEMRHNSIA | EEHYRMD | QHYSRLPLA | nd nd nd nd nd nd | nd | 0/18 |
| TLYMGPTEARDDKHAIA | NMSERDY | QQYHRLPLV | 0.73 0.36 0.13 0.78 0.19 0.36 | 0.43 | 2/18 (2.18) |
| MLNQHDEGFKGVKDAIA | NAELREG | QQYGRLPLS | 0.67 0.62 0.68 0.62 0.35 0.59 | 0.59 | 0/18 |
| KLSMKTYGPTEIDSNVA | NDEMRWQ | QQYDKLPLI | 1.60 1.26 1.10 nd nd nd | 1.32 | 0/18 |
| KLSSEYFESYGERQAVA | ENEATMN | QQYSLLPLS | 2.02 nd 1.44 2.27 1.36 2.33 | 1.88 | 0/18 |
| GMSDSMTETIADANHIA | DREARDV | QQYSRLPLI | 0.92 1.14 0.65 0.89 1.18 0.95 | 0.95 | 0/18 |
| NMFGGLNFNDINHQAIA | SVDEREK | QQYHRLPLQ | 1.72 1.41 1.32 1.65 1.17 1.40 | 1.45 | 1/18 (4.43) |
| FLHGNIEYGNGNWSAIA | ENTERVD | QYYQHLPLA | nd nd nd nd nd nd | nd | 0/18 |
| SIQNLGMVPSVWKNSIA | DVTIVEE | QQYSRLPLL | 1.10 0.65 0.78 0.97 -0.12 0.46 | 0.64 | 0/18 |
| NVHALDAISSEFQNSVA | DQECRDA | QQYFRLPLS | 0.97 0.91 0.93 1.19 0.79 0.90 | 0.95 | 0/18 |
| KLTEQDFLGERRQSNIA | AGVMTSY | QQYHHLPLM | 0.05 0.96 0.61 1.72 0.38 0.60 | 0.72 | 0/18 |
| RMNKFMSEIGGARNSIA | GAEHLAQ | QHYHRLPLS | 1.25 1.14 1.11 1.28 1.27 1.30 | 1.22 | 1/18 (2.35) |
| MIEQGENRDQEHYNSIA | EGHERPR | QQYYRLPLV | 0.99 0.88 0.79 0.79 0.75 0.89 | 0.85 | 1/18 (2.83) |
| ALELEEMQMMKDINSIA | NTEHKTR | QQYFRLPIS | 0.92 1.24 0.63 0.85 1.07 1.20 | 0.99 | 2/18 (2.68) |
| KLESEQYHFGADHQSIA | DAHISMN | QQYMHLPFT | -0.17 -0.24 -0.16 0.18 -0.30 0.04 | -0.11 | 0/18 |
| HTQHLGFGDPAHANSIA | EVSQVCS | QQYMRLPLI | 0.44 0.54 0.18 0.22 0.27 0.46 | 0.35 | 0/18 |
| KLMGQGDHSIEHANSIA | NVDNVDM | QQYAHLPLS | 0.61 0.95 0.50 0.93 0.58 1.04 | 0.77 | 3/18 (2.50) |
| KLSLVLGESKQSEKNIA | NMRVSVA | QQYDTLPLT | nd nd nd nd nd 1.89 | 1.89 | 0/18 |
| KVQNGLERGNQAYSAVA | DVTEKGA | QQYLQLPLG | 0.11 0.81 0.58 0.19 0.44 0.19 | 0.39 | 0/18 |
| QMYPFGVAKGEGRNNVA | HVSTRAL | QQYFRLPLV | 0.83 1.49 1.00 0.72 1.07 1.36 | 1.08 | 0/18 |
| KIELGLTRYNNGYSAVA | NETQKAN | QQYSRLPLV | nd nd nd nd nd nd | nd | 0/18 |
| KLDEKNRWNGMANKNVA | ASNTRVD | QQYHRLPLI | 0.54 0.42 0.16 0.47 0.21 0.45 | 0.37 | 2/18 (2.42) |
| AMQMERLGQKQYQNNIA | NQDIRTA | QQYYMLPLV | 0.59 0.19 0.08 -0.38 -0.08 0.17 | 0.10 | 0/18 |
| TLVGNIQGGGWAKKNVA | DAVMRVN | QQYYRLPLS | 0.63 0.47 0.26 0.12 0.26 0.57 | 0.38 | 0/18 |
| QLEFERGDAYKQKNSIA | GGTESLH | QQYAWLPLS | 0.60 0.40 0.67 0.57 0.54 0.70 | 0.58 | 1/18 (2.72) |
| YVSIDLAEGWNQQEAVA | GVSYKEK | QQYYKLPLS | nd nd nd nd nd nd | nd | 1/18 (2.42) |
| KLENSMRWNLRDTNAVA | QASNRAM | QQYQRLPFL | -0.18 -0.31 -0.37 -0.44 -0.26 -0.01 | -0.26 | 0/18 |
| KLMSHEWHGTARNSAMA | NAQVSHD | QQYSRLPLA | 2.80 2.06 1.65 1.97 2.12 2.23 | 2.14 | 0/18 |
| MMGLCQNGYYQQNNSIA | DVNERAM | QQYGRLPLV | 3.11 3.34 2.39 2.57 2.44 2.85 | 2.78 | 0/18 |
| MINMEIGIEDSKWQAVA | SNSVRAS | QQYGRLPFS | 2.38 2.23 2.46 2.88 2.54 nd | 2.50 | 1/18 (3.51) |
| NLQNLGMENSVWKNAIA | DVNIKEI | QQYWRLPLL | 1.20 0.95 0.65 1.16 0.81 1.45 | 1.04 | 0/18 |
| LLSGMVEEQETRQKNIA | EVEFRCM | QQYSRLPLS | nd nd nd 2.32 2.00 nd | 2.16 | 0/18 |
| KLKTMPGEIPKEGNSIA | HAEARTP | QQYHRLPLI | nd nd nd nd nd nd | nd | 0/18 |
| ALFQKGFELHGDRQSIA | HSDTRLA | QQYSRLPLA | 1.25 1.41 1.28 1.26 2.20 1.06 | 1.41 | 0/18 |
| RMDMALPHAHNNINSIA | EGAIVAD | QQYDRLPLW | 0.25 1.21 0.15 0.35 0.20 0.33 | 0.42 | 0/18 |
| MLKMPNHEVNFDKNSVA | DRTTKES | QQYHRLPIT | 1.74 1.07 1.30 1.50 0.89 0.94 | 1.24 | 0/18 |

Three control strains display no target. For all light chain designs, 4% of the pairings with them gave a signal, with a median of 2.64 and one signal in twenty below 1.59, so weak values seen in few replicates may be background. Also given: how often the same scFv was detected with the empty control strains, with their mean in brackets. In the paper, a design with two or fewer of six values counts as a poor binder.